{"sequences": {"note": "Amino acid sequences for entries named in this document (tags omitted). A change or cut given only in a name is not applied to a line headed by its entry.", "UniProt Q12809": "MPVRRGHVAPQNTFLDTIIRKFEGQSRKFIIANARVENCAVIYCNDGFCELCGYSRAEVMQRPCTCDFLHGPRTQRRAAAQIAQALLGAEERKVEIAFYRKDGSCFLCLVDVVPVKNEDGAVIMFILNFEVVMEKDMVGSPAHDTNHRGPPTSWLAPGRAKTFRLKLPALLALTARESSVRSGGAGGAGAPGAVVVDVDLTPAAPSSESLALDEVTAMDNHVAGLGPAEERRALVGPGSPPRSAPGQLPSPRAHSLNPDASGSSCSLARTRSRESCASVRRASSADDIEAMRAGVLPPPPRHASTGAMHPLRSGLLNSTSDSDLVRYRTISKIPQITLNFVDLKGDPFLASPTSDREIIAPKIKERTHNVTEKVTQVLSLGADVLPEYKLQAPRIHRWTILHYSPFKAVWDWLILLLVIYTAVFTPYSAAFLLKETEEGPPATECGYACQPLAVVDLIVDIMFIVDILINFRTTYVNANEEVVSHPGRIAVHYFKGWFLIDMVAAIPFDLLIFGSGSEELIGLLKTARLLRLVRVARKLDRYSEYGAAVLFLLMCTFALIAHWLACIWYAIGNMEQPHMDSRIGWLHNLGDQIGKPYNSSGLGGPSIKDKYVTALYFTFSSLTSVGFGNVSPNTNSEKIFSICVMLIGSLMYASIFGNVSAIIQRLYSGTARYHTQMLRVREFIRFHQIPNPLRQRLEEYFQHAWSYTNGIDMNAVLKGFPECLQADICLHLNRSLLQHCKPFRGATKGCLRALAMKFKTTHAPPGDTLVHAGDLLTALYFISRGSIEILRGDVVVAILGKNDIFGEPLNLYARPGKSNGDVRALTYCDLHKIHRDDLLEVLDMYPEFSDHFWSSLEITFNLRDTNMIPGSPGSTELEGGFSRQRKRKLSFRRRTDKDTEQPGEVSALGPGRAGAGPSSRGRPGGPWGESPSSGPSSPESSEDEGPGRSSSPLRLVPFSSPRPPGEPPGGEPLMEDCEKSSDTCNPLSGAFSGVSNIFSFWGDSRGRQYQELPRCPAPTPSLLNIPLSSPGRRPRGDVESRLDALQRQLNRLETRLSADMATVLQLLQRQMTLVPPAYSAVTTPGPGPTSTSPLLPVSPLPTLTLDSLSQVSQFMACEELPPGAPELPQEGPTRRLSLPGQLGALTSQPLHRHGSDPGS"}, "source": "PubChem BioAssay AID720551", "about": "(National Center for Advancing Translational Sciences (NCATS), 2013)", "note": "Screen size: about 340,000 compounds; about 1,300 (0.38%) were called active. The source calls these results inconclusive, neither active nor inactive.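 How the source made its calls: active means maximum activity change below -70%; inconclusive means maximum activity change between -70% and -50%; inactive means maximum activity change above -50%.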 On the % scale 0 is the no-effect control and ±100 the full control effect.", "data": [{"biological_target": "Voltage-gated inwardly rectifying potassium channel KCNH2 (Homo sapiens) (UniProt Q12809)", "experiment": "qHTS for Inhibitors of KCHN2 3.1: Wildtype qHTS", "details": "U2OS, BacMam KCNH2, thallium flux FluxOr; at 1.84 µM; hits give low values", "excerpt": "Many antipsychotic drugs that inhibit the neurotransmitter dopamine also bind to hERG1 channel which might help explain their antipsychotic activity but also produces cardiac side effects. The discovery of the novel KCNH2 3.1 isoform offers a potential new target for the development of antipsychotic drugs without cardiac side effects. This proposal will use a high throughput thallium flux assay developed for KCNH2 to screen compounds that modulate the activity of KCNH2 3.1. The wild type KCNH2 channel will also be screened in parallel to help define the selective modulators of this KCNH2 3.1 potassium channel. The resulting compounds will be validated in electrophysiology experiments. The availability of animal models will allow future testing in vivo for effects on memory and other aspects of animal physiology linked with psychosis. NIH Chemical Genomics Center [NCGC] NIH Molecular Libraries Probe Centers Network [MLPCN] MLPCN Grant: MH096539 Assay Submitter (PI): James Barrow, Johns Hopkins University, Lieber Institute for Brain Development\nU2OS cells were resuspended in cell media containing 10% fetal calf serum (FCS) at a concentration of 2 million cells / mL. […] A stimulation buffer was added to the plate and the second kinetic read (2 min) was obtained. The rate constant was calculated from the kinetic reads and normalized to the positive and negative DMSO controls.", "values": [{"smiles": "CCOC(=O)Nc1ccc([As](=O)(O)O)c(O)c1", "activity change": "inconclusive: -69.2%"}, {"smiles": "O=[N+]([O-])c1ccc(Nc2ccc(Oc3ccc([N+](=O)[O-])cc3[N+](=O)[O-])cc2)c([N+](=O)[O-])c1", "activity change": "inconclusive: -57.8%"}]}]}
